Data: patent US9789082B2, “Somatostatin receptor subtype 4 (SSTR4) agonists” (Centrexion Therapeutics Corporation, priority 2013, dated 2017)

Chains of the proteins cited; added tags and fusions are not shown. Lines headed by an entry give the natural chain unless they say otherwise; changes in a name come on top.
UniProt P31391: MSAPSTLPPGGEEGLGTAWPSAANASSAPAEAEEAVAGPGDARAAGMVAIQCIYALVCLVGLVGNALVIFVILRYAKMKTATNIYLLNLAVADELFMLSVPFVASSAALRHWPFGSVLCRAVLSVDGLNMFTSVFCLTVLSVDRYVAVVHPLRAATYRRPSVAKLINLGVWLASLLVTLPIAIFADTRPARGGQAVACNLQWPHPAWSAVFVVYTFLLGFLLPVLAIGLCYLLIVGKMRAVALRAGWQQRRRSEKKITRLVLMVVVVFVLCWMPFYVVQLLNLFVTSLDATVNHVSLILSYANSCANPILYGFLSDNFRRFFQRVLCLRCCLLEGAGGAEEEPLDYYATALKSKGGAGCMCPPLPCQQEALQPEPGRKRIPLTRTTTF

Target: human SSTR4 (Homo sapiens (Human), UniProt P31391)
Experiment: Radioligand binding assay, CHO cell membranes expressing recombinant human SSTR4
From the text: Radioligand Binding Assays
Method Description for Binding Assays with Human Somatostatin Receptors by Use of CHO Cell Membranes Expressing Recombinant Human SSTR1 or Human SSTR2 or Human SSTR3 or Human SSTR4 or Human SSTR5
Receptor binding assays refer to a technique in which labeled receptor ligands are used to detect binding to a receptor. In competition experiments test compounds, which are not labeled, compete with the binding side of a labeled ligand. The displacement of the labeled ligand by the test compound leads to a decreased signal.
For the binding experiments 200 μL of membrane homogenate from one of the following protein amounts is used: hSSTR1 (40 μg/well); hSSTR2 (25 μg/well); hSSTR3 (1.5 μg/well); hSSTR4 (0.5 μg/well); hSSTR5 (25 μg/well). […] The incubation is terminated by filtration with ice cold NaCl 0.9% through polyethyleneimine treated (0.3%) GF/B glass fiber filters using a cell harvester. The protein-bound radioactivity is measured in a suitable reader. The non-specific binding is defined as radioactivity bound in the presence of 1 μM Somatostatin-14 during the incubation period.
The analysis of the concentration-binding curves is performed by computer-assisted nonlinear least square curve fitting method using the model of one receptor binding site.
Selectivity data was obtained with the aid of the above described radioligand binding assays.

SMILES: Cc1cccc2c(C(C)(C)NC(=O)[C@H]3[C@@H]4CNC[C@@H]43)nn(C)c12 [Example 107]
- Ki: 3.4 nM
